Laboratory results reported in patent US8987249B2, “Substituted 2-Aza-bicyclo[2.2.1]heptane-3-carboxylic acid (benzyl-cyano-methyl)-amides inhibitors of Cathepsin C” (Boehringer Ingelheim International GmbH, priority 2013, dated 2015).

The chains behind the UniProt entries cited, without tags or fusion partners. Residues count along the entry.
UniProt P53634, 25-134 limits assumed: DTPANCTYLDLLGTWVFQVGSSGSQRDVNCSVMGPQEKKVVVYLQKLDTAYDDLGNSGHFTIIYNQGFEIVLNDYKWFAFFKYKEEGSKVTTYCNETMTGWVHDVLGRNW
UniProt P53634, 231-394 limits assumed: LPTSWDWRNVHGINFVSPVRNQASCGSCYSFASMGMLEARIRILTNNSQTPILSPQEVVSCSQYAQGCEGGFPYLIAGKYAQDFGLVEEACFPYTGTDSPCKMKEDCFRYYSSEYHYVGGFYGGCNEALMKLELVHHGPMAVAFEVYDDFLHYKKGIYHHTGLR
UniProt P53634, 395-463 limits assumed: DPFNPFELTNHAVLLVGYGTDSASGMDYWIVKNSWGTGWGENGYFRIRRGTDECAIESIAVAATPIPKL
UniProt P43235, 115-329 limits assumed: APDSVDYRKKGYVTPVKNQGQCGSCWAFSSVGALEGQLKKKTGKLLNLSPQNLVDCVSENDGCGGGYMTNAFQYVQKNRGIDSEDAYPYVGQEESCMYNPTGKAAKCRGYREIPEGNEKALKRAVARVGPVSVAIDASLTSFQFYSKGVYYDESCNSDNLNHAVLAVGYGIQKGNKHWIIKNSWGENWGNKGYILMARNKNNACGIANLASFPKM

Assays:
[1] = molecular target: recombinant human DPPI (Cathepsin C) (Homo sapiens (Human), UniProt P53634); assay: Inhibition of human DPPI (Cathepsin C); assay type: biochemical; details: read-out: Inhibition of DPPI IC50, substrate Gly-Arg-AMC
[2] = Determination of metabolic stability with human liver microsomes; details: pooled human liver microsomes, 1 μM test compound, 37° C., NADPH
[3] = system: neutrophil elastase activity in U937 cells; assay: Determination of neutrophil elastase activity in U937 cytosolic lysate preparation after incubation with test compound; details: read-out: Reduction of NE-activity in U937 cells IC50
[4] = molecular target: recombinant human Cathepsin K (Homo sapiens (Human), UniProt P43235); assay: Inhibition of human Cathepsin K; details: read-out: Inhibition of Cathepsin K IC50, substrate Z-Gly-Pro-Arg-AMC

IC50 [1]: 44.1 nM
In vitro stability in human liver microsome incubations t½ [2]: 2 h
IC50 [3]: 107 nM
IC50 [4]: 400 nM
Structure (SMILES): N#Cc1ccc(-c2ccc(C[C@@H](C#N)NC(=O)[C@@H]3CCCCN3)cc2)cc1F
